In patent US20250051703A1, “EGG OPENER, EX OVO TUMOR XENOGRAFT METHOD, THERAPEUTIC COMPOUND ASSAY, THERAPEUTIC COMPOUND TESTING METHOD VIA EX OVO QUAIL EGG XENOGRAFT ASSAY” (CHILDREN'S CANCER THERAPY DEVELOPMENT INSTITUTE, priority 2021, published 2025):

System: BT474 human breast cancer cell line
Test: BT474 xenograft CAM assay, radiance
Assay type: in vivo
Conditions: FIGS. 18C and 18D

In the case of trastuzumab, the “dose-response in BT474 xenograft CAM assay” value is reported as “dose-response relationship”.
